Key:
human GCGR = human GCGR (Homo sapiens (Human), UniProt P47871); assay: Cellular functional assay, cAMP readout: glucagon stimulated cAMP in HEK293 cells expressing human GCGR (LANCE TR-FRET); format: cell-based
Protocol: IC50 Values in Cellular Functional Assays: cAMP Readout
Full-length human GCGR (Accession Number: NM000160) subcloned into pcDNA3.1 was stably transfected into HEK293 cells (hGluc-1 HEK) and maintained under G418 selection (500 μg/mL). Cell cultures were maintained in DMEM/F12 media supplemented with 10% FBS and 1% GlutaMax. Glucagon stimulated cAMP was quantified using LANCE technology as per manufacturer instructions. On the day of the experiment, spent media was removed and cells were washed with Hank's Buffered Saline solution (HBSS) and cells were harvested with non-enzymatic cell dissociation solution, then washed once with HBSS. Cells were re-suspended in stimulation buffer at a concentration of 0.83×10^6 cells/ml and cAMP detection antibody was added. 6 μl/well of this solution was then dispensed in a 384 well plate (cell density 5000 cells/well). Test compound was serially diluted in DMSO and 50 nl were dispensed on top of the cell solution and allowed to incubate for 30 minutes. 6 μl of a 2× glucagon solution (final concentration in assay 100 pM) was then added and the reaction was terminated after 5 minutes with the addition of detection mix. The resulting mixture was incubated, protected from light for 1.5 h. cAMP levels were quantified by TR-FRET in an EnVision instrument against a known standard. IC50's were generated by using a non-linear regression macro driven in Excel and converted to Ki values.

The chains behind the UniProt entries cited, without tags or fusion partners. Residues count along the entry.
UniProt P47871, 26-477: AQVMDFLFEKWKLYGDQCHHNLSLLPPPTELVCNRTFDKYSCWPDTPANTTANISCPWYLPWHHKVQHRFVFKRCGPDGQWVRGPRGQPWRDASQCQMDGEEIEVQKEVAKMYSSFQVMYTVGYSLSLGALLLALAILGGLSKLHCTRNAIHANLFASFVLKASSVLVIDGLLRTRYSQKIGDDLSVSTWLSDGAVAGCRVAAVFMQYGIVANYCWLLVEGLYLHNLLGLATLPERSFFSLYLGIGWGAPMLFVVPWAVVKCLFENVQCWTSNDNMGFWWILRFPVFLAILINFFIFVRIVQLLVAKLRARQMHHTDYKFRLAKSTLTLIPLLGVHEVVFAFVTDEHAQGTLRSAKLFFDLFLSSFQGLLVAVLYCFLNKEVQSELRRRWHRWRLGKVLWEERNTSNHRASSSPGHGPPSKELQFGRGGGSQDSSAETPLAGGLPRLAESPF

[1] = target: human glucagon receptor (GCGR) (Homo sapiens (Human), UniProt P47871); assay: Inhibition of 125I-glucagon binding to membranes from HEK293 cells expressing the human glucagon receptor (GCGR); conditions: membranes from hGluc-1 HEK293 cells, 125I-glucagon at 0.3 nM, 2 hours at room temperature; IC50 converted to Ki
Protocol: Inhibition ^125I-Glucagon Binding to Membranes from HEK293 Cells Expressing the Human Glucagon Receptor (GCGR)
Full-length human GCGR (Accession Number: NM000160) subcloned into pcDNA3.1 was stably transfected into HEK293 cells (hGluc-1 HEK) and maintained under G418 selection (500 μg/mL). Cell cultures were maintained in DMEM/F12 media supplemented with 10% FBS and 1% GlutaMax. Membranes were prepared from these cells as follows: cells were harvested from T225 flasks and re-suspended in hypotonic lysis buffer, 50 mM HEPES pH 7.4 supplemented with Complete Protease inhibitors (Boehringer Mannheim, Indianapolis, Ind.). Cells were dounced 20 times on ice and spun at 700×g to remove nuclei and unlysed cells. The resulting pellet was re-suspended in hypotonic lysis buffer and the above step was repeated. Supernatants from the low speed centrifugation were combined and subsequently spun at 100K×g for 1 hr at 4° C. and the resulting pellet was re-suspended in buffer containing 50 mM HEPES pH 7.4 and 10% sucrose and the protein concentration was adjusted at 1 mg/mL as determined in the BCA assay. Membranes were aliquoted and stored at −80° C. The binding assay was performed by a filtration method in a 384 well format. Membranes at a final protein concentration of 6 μg/well were incubated with ^125I-glucagon at 0.3 nM and in the presence of compound for 2 hours at room temperature in a total reaction volume of 40 μL per well. Assay buffer consisted of 50 mM HEPES, pH 7.4, 5 mM MgCl2, 1 mM CaCl2 and 0.2% BSA. 30 μL of the reaction was then transferred to PEI treated filter plates and followed by filter aspiration. Plates were then washed 5× and allowed to dry at room temperature overnight. The next day the bottom of the plate was covered with seal tape and scintillant was added. Total counts retained by the filters were quantified with a Top Count instrument. IC50's were generated by using a non-linear regression macro driven in Excel and converted to K's.

| SMILES | Ki (human GCGR) [nM] | Ki [1] [nM] |
| --- | --- | --- |
| O=C(O)CCNC(=O)c1ccc(-c2cc(Cl)ccc2CNc2ccc(-c3ccc(Cl)cc3)cc2)cc1F [Compound 10, 3-(5′-chloro-2′-(((4′-chloro-[1,1′-biphenyl]-4-yl)amino)methyl)-3-fluoro-[1,1′-biphenyl]-4-ylcarboxamido)propanoic acid] | 650 | 120 |
| Cc1cc(C(=O)NCCC(=O)O)ccc1-c1ccccc1CNc1ccc(-c2ccc(Cl)cc2)cc1 [Compound 7, 3-(2′-(((4′-chloro-[1,1′-biphenyl]-4-yl)amino)methyl)-2-methyl-[1,1′-biphenyl]-4-ylcarboxamido)propanoic acid] | 250 | 45 |
| O=C(O)CCNC(=O)c1ccc(-c2cc(Cl)ccc2CNc2ccc(-c3ccc(Cl)cc3Cl)cc2)cc1F [Compound 12, 3-(5′-chloro-2′-(((2′,4′-dichloro-[1,1′-biphenyl]-4-yl)amino)methyl)-3-fluoro-[1,1′-biphenyl]-4-ylcarboxamido)propanoic acid] | 1000 | 240 |
| O=C(O)CCNC(=O)c1ccc(-c2cc(Cl)ccc2CNc2ccc(-c3ccc(F)cc3)cc2)cc1F [Compound 11, 3-(5′-chloro-3-fluoro-2′-(((4′-fluoro-[1,1′-biphenyl]-4-yl)amino)methyl)-[1,1′-biphenyl]-4-ylcarboxamido)propanoic acid] | 1600 | 240 |
| O=C(O)CCNC(=O)c1ccc(-c2ccccc2CNc2ccc(-c3ccc(Cl)cc3)cc2)cc1 [Compound 18, 3-(2′-(((4′-chloro-[1,1′-biphenyl]-4-yl)amino)methyl)-[1,1′-biphenyl]-4-ylcarboxamido)propanoic acid] | 170 | 60 |

Source: patent US9045389B2, “Biphenyl derivatives useful as glucagon receptor antagonists” (Janssen Pharmaceutica NV, priority 2011, dated 2015)
